These are literature values, as cited in PMC10343800, “A Novel LSTM-Based Machine Learning Model for Predicting the Activity of Food Protein-Derived Antihypertensive Peptides” (Molecules, 2023).

Sequences of proteins named here, by UniProt entry; tags and fusion partners are left off. Residues count along the entry.
UniProt P12821, 30-1306 limits assumed: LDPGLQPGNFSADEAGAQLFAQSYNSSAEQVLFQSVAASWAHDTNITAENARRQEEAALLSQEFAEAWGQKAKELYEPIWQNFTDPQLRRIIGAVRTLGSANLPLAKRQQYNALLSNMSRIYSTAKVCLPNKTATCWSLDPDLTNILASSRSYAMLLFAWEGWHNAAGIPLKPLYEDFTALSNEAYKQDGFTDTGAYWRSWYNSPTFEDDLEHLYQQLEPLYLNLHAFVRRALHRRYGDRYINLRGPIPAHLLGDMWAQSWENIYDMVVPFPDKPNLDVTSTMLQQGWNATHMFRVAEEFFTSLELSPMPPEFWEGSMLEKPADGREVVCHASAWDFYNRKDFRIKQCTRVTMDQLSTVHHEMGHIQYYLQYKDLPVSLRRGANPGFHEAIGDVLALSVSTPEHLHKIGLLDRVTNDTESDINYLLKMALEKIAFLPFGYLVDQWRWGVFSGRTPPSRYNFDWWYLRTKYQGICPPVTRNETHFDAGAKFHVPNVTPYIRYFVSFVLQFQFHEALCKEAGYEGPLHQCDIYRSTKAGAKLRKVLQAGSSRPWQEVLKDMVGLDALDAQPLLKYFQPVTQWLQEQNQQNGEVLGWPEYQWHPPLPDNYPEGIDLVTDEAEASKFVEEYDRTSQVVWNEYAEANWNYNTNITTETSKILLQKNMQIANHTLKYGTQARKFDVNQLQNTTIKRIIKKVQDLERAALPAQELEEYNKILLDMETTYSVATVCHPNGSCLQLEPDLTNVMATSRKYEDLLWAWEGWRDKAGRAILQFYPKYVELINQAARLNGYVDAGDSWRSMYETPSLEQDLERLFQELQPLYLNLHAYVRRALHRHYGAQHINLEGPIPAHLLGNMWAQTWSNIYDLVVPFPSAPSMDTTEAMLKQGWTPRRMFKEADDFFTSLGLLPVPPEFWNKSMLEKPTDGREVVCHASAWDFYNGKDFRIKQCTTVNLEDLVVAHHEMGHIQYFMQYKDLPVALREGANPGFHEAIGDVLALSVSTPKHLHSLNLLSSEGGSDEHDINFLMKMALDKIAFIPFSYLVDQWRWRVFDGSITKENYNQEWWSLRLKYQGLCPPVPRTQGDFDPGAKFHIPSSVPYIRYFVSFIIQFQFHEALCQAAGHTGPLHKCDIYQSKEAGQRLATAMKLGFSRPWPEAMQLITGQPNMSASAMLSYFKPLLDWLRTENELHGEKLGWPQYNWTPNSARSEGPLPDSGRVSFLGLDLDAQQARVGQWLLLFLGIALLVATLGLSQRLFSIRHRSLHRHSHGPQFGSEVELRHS

Each structure is given as a SMILES string.

The target in this data set is ACE (Homo sapiens, UniProt P12821). Conditions: read-out: Reported IC50; in vitro ACE inhibition; cited from earlier work.
By IC50 is commonly meant the midpoint of a concentration-inhibition curve. Turning to `CC(C)C[C@H](N)C(=O)N[C@H](C(=O)O)[C@@H](C)O`, the IC50 is 1.11 µM.

On to `NCCCC[C@H](N)C(=O)N[C@@H](Cc1ccccc1)C(=O)O`, for which the 50% inhibitory concentration (IC50) was 28.3 µM. For the molecule `NCCCC[C@H](N)C(=O)N[C@@H](Cc1c[nH]c2ccccc12)C(=O)O`, the IC50 is 10.8 µM. Turning to `N[C@@H](Cc1ccccc1)C(=O)N[C@@H](Cc1ccc(O)cc1)C(=O)O`, the concentration for half-maximal inhibition (IC50) is 3.7 µM. Regarding `NCC(=O)N[C@@H](Cc1ccccc1)C(=O)O`, the concentration for half-maximal inhibition (IC50) was 278 µM. Take `C[C@H](N)C(=O)N[C@@H](Cc1ccc(O)cc1)C(=O)O`: the concentration for half-maximal inhibition (IC50) was 147 µM. For `N[C@@H](Cc1ccc(O)cc1)C(=O)N[C@@H](Cc1ccc(O)cc1)C(=O)O`, the IC50 is 47.9 µM.

On to `CC[C@H](C)[C@H](N)C(=O)N[C@@H](Cc1ccc(O)cc1)C(=O)O`, for which the IC50 was 2.7 µM. With `CC(C)C[C@H](N)C(=O)N[C@@H](CCCCN)C(=O)N1CCC[C@H]1C(=O)O`, the 50% inhibitory concentration (IC50) was 2.93 µM.
